Reference: ChEMBL document CHEMBL2218924, “A broad activity screen in support of a chemogenomic map for kinase signalling research and drug discovery” (Biochem J, 2013)
For some assays here: The strong results were mostly taken out for another list; the other results follow. How the calls were made is not given here. Only a part is listed here, and it is no random draw.

The chains behind the UniProt entries cited, without tags or fusion partners. Where a name states a change or a piece, a line headed by the entry shows the natural chain unless it says otherwise.
UniProt P08069, whole entry, looked up: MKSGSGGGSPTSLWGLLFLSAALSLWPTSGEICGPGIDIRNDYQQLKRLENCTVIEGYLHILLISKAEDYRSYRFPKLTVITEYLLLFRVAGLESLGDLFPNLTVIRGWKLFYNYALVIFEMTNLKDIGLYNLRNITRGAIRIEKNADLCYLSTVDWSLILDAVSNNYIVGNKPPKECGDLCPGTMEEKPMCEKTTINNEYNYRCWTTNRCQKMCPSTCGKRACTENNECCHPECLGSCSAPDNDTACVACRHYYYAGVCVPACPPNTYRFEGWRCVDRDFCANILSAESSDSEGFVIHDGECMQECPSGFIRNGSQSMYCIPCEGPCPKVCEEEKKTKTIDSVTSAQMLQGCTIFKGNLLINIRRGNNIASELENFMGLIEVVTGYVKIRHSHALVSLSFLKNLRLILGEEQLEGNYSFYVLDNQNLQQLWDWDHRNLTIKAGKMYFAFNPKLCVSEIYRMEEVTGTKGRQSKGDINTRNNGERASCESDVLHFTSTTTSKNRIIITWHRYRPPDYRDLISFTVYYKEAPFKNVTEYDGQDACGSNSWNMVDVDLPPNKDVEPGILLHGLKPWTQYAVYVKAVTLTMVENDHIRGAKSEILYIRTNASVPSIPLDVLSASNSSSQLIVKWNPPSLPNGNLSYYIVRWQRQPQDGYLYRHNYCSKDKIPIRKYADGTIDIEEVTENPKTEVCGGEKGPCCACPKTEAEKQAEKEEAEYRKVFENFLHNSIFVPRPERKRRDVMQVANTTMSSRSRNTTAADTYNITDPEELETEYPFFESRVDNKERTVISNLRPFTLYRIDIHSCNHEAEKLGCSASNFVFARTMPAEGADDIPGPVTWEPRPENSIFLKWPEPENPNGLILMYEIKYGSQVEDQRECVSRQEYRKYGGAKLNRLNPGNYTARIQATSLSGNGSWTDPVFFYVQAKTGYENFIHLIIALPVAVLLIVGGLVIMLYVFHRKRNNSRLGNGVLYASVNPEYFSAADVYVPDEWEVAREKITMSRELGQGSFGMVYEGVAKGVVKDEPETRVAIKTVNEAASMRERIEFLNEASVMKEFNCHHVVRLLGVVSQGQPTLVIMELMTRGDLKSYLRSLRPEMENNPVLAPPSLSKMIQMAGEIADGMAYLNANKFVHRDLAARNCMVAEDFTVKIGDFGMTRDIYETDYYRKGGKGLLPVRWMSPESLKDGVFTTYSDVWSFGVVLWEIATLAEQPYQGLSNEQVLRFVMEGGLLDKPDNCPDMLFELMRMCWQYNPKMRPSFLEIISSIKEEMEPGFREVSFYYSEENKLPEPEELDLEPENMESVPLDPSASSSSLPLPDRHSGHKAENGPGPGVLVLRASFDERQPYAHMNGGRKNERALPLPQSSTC
UniProt P42685: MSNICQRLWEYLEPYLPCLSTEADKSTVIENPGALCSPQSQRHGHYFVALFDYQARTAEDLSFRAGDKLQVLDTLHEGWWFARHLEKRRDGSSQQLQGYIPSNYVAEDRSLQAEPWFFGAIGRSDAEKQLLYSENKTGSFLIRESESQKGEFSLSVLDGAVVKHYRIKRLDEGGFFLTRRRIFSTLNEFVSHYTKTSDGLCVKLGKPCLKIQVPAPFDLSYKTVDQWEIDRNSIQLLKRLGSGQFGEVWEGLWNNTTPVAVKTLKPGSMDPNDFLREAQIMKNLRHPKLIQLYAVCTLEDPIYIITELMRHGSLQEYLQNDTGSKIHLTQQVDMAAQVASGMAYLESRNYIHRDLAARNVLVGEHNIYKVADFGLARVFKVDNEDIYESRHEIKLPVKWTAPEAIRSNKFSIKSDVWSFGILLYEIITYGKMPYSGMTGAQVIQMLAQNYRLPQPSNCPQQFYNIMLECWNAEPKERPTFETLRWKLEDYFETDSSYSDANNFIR
UniProt Q9H4B4: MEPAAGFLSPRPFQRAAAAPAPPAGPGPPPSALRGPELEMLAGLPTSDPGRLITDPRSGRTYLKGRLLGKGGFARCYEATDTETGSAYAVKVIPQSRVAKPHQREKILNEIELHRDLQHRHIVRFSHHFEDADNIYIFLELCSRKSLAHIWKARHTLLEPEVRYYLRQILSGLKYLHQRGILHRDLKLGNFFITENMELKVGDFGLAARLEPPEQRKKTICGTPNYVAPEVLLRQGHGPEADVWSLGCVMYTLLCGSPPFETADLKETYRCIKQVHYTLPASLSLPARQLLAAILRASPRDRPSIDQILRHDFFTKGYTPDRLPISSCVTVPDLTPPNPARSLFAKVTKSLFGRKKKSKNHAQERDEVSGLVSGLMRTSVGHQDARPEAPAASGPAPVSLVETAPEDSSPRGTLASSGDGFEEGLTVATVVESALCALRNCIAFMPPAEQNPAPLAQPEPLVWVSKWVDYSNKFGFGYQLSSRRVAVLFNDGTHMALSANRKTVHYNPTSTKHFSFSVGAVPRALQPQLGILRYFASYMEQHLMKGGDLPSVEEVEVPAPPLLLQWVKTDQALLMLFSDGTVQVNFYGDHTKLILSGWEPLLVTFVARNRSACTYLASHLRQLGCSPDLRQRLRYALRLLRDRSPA
UniProt O75116: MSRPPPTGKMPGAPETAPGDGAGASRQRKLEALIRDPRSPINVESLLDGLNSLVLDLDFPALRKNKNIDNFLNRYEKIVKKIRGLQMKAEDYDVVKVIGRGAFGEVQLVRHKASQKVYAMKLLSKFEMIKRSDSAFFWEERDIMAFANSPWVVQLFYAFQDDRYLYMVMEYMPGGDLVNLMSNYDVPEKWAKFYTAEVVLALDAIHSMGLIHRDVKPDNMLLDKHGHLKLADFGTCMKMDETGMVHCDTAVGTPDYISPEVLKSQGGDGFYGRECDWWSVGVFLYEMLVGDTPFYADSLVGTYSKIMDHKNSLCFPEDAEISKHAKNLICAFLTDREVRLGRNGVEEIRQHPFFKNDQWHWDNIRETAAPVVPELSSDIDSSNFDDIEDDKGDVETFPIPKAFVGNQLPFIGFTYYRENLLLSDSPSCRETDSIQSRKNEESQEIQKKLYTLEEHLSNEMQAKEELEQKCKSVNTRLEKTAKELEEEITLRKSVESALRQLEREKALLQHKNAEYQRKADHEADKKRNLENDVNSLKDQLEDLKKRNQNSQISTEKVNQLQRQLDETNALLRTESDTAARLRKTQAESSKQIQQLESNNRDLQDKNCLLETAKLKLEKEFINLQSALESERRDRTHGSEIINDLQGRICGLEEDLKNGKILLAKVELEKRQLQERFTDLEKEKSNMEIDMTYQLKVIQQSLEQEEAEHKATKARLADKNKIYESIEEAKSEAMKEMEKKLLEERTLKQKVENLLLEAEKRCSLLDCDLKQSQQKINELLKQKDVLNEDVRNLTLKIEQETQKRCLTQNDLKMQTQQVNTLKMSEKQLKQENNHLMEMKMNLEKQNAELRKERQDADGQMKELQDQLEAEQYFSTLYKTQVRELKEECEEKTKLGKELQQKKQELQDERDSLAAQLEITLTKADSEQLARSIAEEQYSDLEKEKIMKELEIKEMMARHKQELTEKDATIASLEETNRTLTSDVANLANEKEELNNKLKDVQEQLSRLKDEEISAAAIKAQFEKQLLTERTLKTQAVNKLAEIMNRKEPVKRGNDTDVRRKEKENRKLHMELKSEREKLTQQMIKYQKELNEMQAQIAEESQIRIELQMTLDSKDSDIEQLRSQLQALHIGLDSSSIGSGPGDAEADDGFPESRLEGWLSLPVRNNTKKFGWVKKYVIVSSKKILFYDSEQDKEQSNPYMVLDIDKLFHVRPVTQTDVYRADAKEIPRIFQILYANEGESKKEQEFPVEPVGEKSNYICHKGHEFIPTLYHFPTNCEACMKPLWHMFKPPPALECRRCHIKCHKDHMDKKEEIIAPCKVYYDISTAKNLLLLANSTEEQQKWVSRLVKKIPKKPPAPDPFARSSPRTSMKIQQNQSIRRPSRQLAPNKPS

Experiments:
[1] = target: Insulin-like growth factor 1 receptor (Homo sapiens) (UniProt P08069); conditions: at 10 µM
[2] = target: T1, Protein kinase C iota type (Homo sapiens) (UniProt P41743); conditions: at 1 µM
T1 sequence (whole entry): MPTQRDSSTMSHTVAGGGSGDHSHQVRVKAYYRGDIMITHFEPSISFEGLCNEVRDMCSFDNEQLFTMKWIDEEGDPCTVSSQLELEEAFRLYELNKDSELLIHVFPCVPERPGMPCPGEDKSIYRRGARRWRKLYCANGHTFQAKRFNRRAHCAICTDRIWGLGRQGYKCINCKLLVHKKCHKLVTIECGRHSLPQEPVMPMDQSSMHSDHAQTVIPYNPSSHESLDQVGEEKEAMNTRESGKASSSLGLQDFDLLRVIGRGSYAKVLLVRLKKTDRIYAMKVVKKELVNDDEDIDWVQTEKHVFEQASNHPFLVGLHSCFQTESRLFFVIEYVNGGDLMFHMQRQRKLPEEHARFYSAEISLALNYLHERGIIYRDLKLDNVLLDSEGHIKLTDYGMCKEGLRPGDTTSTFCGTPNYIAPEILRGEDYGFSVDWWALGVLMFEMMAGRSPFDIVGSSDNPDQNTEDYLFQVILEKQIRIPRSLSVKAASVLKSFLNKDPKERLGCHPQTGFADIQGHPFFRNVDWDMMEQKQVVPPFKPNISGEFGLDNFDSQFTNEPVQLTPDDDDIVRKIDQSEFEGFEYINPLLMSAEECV

[3] = target: T1, Protein kinase C iota type (Homo sapiens); conditions: at 10 µM
[4] = target: T2, Serine/threonine-protein kinase D1 (Homo sapiens) (UniProt Q15139); conditions: at 1 µM
T2 sequence (whole entry): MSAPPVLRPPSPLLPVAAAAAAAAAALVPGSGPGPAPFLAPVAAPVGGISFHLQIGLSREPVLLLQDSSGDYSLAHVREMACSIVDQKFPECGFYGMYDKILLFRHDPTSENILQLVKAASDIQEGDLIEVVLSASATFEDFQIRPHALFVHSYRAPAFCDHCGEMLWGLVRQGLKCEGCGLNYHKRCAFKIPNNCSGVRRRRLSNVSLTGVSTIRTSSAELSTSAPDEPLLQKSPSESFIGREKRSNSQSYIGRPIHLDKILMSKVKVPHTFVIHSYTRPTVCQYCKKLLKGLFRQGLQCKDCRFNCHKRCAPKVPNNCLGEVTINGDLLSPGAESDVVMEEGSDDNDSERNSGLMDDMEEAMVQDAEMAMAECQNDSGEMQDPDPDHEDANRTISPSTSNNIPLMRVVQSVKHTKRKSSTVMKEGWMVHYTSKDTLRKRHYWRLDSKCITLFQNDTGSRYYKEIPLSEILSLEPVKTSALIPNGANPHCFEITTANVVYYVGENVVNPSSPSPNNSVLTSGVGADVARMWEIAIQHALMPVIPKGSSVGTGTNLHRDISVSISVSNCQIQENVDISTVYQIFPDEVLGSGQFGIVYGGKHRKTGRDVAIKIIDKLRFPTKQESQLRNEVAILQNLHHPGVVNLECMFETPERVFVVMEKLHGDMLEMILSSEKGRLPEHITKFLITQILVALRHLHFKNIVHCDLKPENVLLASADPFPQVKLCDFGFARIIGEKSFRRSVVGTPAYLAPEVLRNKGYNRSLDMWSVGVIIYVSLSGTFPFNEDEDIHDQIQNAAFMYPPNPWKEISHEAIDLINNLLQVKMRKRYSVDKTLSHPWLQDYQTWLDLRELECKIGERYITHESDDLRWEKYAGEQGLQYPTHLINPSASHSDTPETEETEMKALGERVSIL

[5] = target: T3, Serine/threonine-protein kinase D2 (Homo sapiens) (UniProt Q9BZL6); conditions: at 1 µM
T3 sequence (whole entry): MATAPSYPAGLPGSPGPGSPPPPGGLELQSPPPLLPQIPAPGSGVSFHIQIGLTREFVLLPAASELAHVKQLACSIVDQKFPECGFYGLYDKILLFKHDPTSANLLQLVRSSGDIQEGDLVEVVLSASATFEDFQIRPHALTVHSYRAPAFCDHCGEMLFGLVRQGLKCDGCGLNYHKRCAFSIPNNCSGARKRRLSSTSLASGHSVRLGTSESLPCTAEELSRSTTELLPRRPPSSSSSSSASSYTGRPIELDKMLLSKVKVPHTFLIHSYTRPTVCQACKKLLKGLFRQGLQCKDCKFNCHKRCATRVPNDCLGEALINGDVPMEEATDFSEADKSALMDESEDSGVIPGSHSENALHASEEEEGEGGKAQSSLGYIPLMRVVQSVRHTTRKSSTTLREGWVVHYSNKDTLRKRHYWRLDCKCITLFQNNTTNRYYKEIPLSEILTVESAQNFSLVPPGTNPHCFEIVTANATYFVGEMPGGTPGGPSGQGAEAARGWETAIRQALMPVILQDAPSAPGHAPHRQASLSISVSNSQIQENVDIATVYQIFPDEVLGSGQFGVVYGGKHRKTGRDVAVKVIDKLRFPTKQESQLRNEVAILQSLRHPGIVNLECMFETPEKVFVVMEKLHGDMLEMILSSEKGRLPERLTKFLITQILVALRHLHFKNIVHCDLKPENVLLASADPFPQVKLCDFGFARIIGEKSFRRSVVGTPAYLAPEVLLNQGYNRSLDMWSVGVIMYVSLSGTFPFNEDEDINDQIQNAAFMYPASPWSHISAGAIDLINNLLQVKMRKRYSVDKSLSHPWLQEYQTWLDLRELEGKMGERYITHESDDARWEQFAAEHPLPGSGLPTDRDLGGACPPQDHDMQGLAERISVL

[6] = target: T3, Serine/threonine-protein kinase D2 (Homo sapiens); conditions: at 10 µM
[7] = target: T4, MAP kinase-activated protein kinase 5 (Homo sapiens) (UniProt Q8IW41); conditions: at 1 µM
T4 sequence (whole entry): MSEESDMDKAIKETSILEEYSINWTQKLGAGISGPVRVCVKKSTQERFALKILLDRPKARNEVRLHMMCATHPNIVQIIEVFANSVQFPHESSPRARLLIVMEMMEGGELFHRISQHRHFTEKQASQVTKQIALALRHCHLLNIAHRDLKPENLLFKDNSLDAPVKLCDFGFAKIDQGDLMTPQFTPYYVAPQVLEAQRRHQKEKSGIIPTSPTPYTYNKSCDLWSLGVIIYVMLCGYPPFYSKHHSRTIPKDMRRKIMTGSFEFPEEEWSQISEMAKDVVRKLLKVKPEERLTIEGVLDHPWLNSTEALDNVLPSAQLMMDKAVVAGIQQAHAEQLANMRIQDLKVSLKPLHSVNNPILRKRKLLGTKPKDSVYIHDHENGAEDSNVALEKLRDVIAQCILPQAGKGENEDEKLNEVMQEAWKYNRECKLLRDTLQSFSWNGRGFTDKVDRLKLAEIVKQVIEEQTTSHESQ

[8] = target: Tyrosine-protein kinase FRK (Homo sapiens) (UniProt P42685); conditions: at 10 µM
[9] = target: T5, Phosphorylase b kinase gamma catalytic chain, liver/testis isoform (Homo sapiens) (UniProt P15735); conditions: at 10 µM
T5 sequence (whole entry): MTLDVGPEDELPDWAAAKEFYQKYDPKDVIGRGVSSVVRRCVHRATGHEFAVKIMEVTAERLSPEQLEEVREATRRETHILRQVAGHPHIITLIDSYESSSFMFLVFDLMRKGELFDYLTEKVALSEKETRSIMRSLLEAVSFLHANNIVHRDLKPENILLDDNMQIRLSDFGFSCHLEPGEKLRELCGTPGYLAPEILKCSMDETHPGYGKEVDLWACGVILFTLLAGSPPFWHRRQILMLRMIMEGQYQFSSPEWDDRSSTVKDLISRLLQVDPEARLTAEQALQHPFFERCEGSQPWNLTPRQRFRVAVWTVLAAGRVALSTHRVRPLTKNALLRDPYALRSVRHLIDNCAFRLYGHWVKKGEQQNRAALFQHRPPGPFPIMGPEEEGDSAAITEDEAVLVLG

[10] = target: Serine/threonine-protein kinase pim-3 (Homo sapiens) (UniProt Q86V86); conditions: at 1 µM
[11] = target: Serine/threonine-protein kinase PLK3 (Homo sapiens) (UniProt Q9H4B4); conditions: at 1 µM
[12] = target: Serine/threonine-protein kinase PLK3 (Homo sapiens) (UniProt Q9H4B4); conditions: at 10 µM
[13] = target: Rho-associated protein kinase 2 (Homo sapiens) (UniProt O75116); conditions: at 1 µM
[14] = target: T6, Macrophage-stimulating protein receptor (Homo sapiens) (UniProt Q04912); conditions: at 1 µM
T6 sequence (whole entry): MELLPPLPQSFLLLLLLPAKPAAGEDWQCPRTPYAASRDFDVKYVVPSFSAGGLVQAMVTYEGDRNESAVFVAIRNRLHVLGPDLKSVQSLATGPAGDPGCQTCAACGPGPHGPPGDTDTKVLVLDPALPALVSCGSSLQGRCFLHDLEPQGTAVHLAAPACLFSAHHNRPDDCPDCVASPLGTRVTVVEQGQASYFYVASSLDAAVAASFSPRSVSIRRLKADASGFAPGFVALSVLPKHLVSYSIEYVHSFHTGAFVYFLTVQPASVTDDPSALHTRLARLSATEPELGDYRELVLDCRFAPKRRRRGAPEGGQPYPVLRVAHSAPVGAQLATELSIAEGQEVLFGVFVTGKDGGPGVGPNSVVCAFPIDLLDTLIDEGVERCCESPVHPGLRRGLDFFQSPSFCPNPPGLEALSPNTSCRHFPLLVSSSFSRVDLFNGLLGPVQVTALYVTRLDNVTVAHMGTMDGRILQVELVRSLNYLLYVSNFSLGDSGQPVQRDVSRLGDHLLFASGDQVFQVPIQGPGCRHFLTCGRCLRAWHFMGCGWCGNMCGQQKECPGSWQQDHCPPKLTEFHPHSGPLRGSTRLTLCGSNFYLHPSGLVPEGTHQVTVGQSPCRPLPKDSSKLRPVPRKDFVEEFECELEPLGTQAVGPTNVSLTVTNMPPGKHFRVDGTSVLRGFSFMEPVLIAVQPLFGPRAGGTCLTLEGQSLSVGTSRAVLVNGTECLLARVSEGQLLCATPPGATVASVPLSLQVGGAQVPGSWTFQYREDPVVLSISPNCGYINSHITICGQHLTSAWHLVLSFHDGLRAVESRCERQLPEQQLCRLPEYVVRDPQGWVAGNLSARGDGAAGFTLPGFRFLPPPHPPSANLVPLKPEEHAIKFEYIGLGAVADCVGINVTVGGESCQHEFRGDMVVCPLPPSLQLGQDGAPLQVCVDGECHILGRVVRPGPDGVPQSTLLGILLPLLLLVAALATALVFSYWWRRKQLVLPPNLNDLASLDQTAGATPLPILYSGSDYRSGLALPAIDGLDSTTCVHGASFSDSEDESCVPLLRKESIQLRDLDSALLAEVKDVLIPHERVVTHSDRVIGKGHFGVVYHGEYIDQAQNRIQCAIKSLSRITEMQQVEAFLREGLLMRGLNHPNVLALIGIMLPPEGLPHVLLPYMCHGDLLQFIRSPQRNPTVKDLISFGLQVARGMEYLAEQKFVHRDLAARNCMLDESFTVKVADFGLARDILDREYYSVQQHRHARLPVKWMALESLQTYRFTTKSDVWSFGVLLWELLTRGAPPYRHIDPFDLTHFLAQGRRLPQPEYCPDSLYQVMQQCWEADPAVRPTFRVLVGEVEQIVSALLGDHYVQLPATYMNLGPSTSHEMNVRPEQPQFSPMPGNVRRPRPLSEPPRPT

With O=C1NC(=O)C(c2cn(CCCn3ccnc3)c3ccccc23)=C1Nc1ccccc1 the residual activity [1] was 88%, the residual activity [2] was inactive: 86% and the residual activity [3] was 87%. The residual activity [4] was 91%, the residual activity [5] was 102% and the residual activity [6] was 96%. The residual activity [7] was 83%, the residual activity [8] was 91% and the residual activity [9] was 93%. The residual activity [10] was 89%, the residual activity [11] was inactive: 84% and the residual activity [12] was 96%. For the same compound, the residual activity [13] was 99% and the residual activity [14] was 89%.
